Values quoted from earlier work in PMC4281022 (Journal of medicinal chemistry, 2013).

Protein sequences, listed by entry. Tags and fused reporters are not part of them.
UniProt P47746, whole entry: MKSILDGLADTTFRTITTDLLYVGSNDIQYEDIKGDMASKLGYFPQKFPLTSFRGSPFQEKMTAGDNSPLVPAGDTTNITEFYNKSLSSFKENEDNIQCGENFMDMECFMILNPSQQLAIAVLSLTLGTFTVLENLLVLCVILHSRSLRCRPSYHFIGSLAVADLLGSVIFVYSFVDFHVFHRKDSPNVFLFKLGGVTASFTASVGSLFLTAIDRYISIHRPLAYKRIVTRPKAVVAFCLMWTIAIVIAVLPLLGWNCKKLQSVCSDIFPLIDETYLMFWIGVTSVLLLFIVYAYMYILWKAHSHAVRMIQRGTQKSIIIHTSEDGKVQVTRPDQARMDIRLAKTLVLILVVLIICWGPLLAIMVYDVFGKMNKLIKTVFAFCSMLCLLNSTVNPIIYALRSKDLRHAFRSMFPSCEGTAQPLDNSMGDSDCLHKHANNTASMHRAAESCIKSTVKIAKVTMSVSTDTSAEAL

Target: CB1 receptor (Mus musculus, UniProt P47746)
Settings: cited from earlier work

## Cc1c(C(=O)NN2CCCCC2)nn(-c2ccc(Cl)cc2Cl)c1-c1ccc(Cl)cc1 [rimonabant]
  Effect of co-administration on tetrad effects of a CB1 agonist: blocked
